{"sequences": {"note": "Protein sequences, listed by entry. Tags and fused reporters are not part of them.", "UniProt P25929, whole entry": "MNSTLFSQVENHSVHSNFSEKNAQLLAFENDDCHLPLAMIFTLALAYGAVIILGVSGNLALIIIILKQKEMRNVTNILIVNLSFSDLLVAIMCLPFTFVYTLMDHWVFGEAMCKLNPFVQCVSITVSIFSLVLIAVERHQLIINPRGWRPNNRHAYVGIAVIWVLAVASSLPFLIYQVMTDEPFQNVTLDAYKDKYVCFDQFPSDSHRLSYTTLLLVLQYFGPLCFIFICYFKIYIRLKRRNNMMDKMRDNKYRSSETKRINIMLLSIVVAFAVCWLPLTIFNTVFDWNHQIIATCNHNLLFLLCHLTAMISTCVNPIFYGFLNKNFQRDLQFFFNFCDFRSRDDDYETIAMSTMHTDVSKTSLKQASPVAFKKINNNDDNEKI"}, "source": "PubChem BioAssay AID1304", "about": "(The Scripps Research Institute Molecular Screening Center, 2008)", "note": "Only a part is listed here, and it is no random draw. Active and inactive are the calls of the source. Cut-off read from the data, not from the text of the source: active = activation above about 33% (passing the limit was not always enough); inactive = the rest.", "data": [{"biological_target": "Neuropeptide Y receptor type 1 (Homo sapiens) (UniProt P25929)", "experiment": "NPY-Y1 receptor potentiators or agonists, primary screen, cell-based (AID 1304);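 note: cells stimulated with NPY at EC10 then isoproterenol at EC100; 0% = low agonist plus stimulus and 100% = saturating agonist plus stimulus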", "conditions": "NPY-Y1 expressing cells, potentiator/agonist activation; at 3.6 µM; stronger effect = higher value", "values": [{"smiles": "CCN1CCC(Nc2cccc(F)c2)CC1", "activation": "inactive: -18.6%"}, {"smiles": "CN(C)c1ccc(C(=O)NCC2(N3CCCCC3)CCCCC2)cc1", "activation": "inactive: 11.6%"}, {"smiles": "CCOc1ncccc1C(=O)NCC1(N2CCOCC2)CCCCC1", "activation": "inactive: -5.04%"}, {"smiles": "CC(C)(C)OC(=O)N1CCC(Nc2ccccc2)CC1", "activation": "inactive: 0.84%"}, {"smiles": "CCC(CO)(C(=O)OC1CN2CCC1CC2)c1ccccc1", "note": "(centres undefined)", "activation": "inactive: -28.8%"}, {"smiles": "COc1cc(OC)cc(C(=O)NCC2(N3CCOCC3)CCCCC2)c1", "activation": "inactive: -30.7%"}, {"smiles": "CCCOc1ccc(C)cc1CN(CCCl)CCCl", "activation": "inactive: 15.7%"}, {"smiles": "COc1ccc(C(=O)NCC2(N3CCOCC3)CCCCC2)cc1OC", "activation": "inactive: -4.85%"}, {"smiles": "N/C(=N\\O)c1c(N)no[n+]1[O-]", "activation": "inactive: 3.05%"}, {"smiles": "O=C(OC1CN2CCC1CC2)C1c2ccccc2C=Cc2ccccc21", "note": "(centres undefined)", "activation": "inactive: 5.84%"}, {"smiles": "N#Cc1ccc(C(=O)NCC2(N3CCCCC3)CCCCC2)cc1", "activation": "inactive: -3.99%"}, {"smiles": "c1ccc(CN2CCC(Nc3ccccc3)CC2)cc1", "activation": "inactive: 16%"}, {"smiles": "O=C(NCC1(N2CCCCC2)CCCCC1)c1cccc([N+](=O)[O-])c1", "activation": "inactive: 3.73%"}, {"smiles": "N#CC1(Nc2ccccc2)CCN(CCc2ccccc2)CC1", "activation": "inactive: -22.5%"}, {"smiles": "COc1ccc(NC2CCN(C(=O)OC(C)(C)C)CC2)cc1", "activation": "inactive: 20.1%"}, {"smiles": "CN1CCN(CCOC(=O)C(O)(c2ccccc2)c2ccccc2)CC1", "activation": "inactive: -6.13%"}, {"smiles": "O=C(NCC1(N2CCOCC2)CCCCC1)c1cc(=O)[nH]c2ccccc12", "activation": "inactive: -9.89%"}, {"smiles": "COc1ccc(CN(CCCl)CCCl)cc1Cl", "activation": "inactive: 13.6%"}, {"smiles": "CN(C)c1cccc(C(=O)NCC2(N3CCCCC3)CCCCC2)c1", "activation": "inactive: -9.28%"}, {"smiles": "CC(C)c1ccc(NC2CCN(C(=O)OC(C)(C)C)CC2)cc1", "activation": "inactive: -0.44%"}, {"smiles": "CN1CCC(Nc2cccc(F)c2)CC1", "activation": "inactive: -30.8%"}, {"smiles": "COc1ccc(C(=O)NCC2(N3CCCCC3)CCCCC2)c(OC)c1OC", "activation": "active: 52.9%"}, {"smiles": "O=C(NCC1(N2CCOCC2)CCCCC1)c1cc2ccccc2o1", "activation": "inactive: 7.99%"}, {"smiles": "CCOC(=O)N1CCC(Nc2ccc(OC)cc2)CC1", "activation": "inactive: 10.6%"}, {"smiles": "N#CC1(Nc2ccccc2)CCN(Cc2ccccc2)CC1", "activation": "inactive: 22.8%"}, {"smiles": "O=C(OC1CN2CCC1CC2)C1c2ccccc2Oc2ccccc21", "note": "(centres undefined)", "activation": "inactive: -20.9%"}, {"smiles": "CCOc1ccc(C)cc1CN(CCCl)CCCl", "activation": "inactive: -1.94%"}, {"smiles": "COc1ccc(NC2CCN(CCc3ccccc3)CC2)c(OC)c1", "activation": "inactive: 21.1%"}, {"smiles": "Cc1ccc(OCC(C)C)c(CN(CCCl)CCCl)c1", "activation": "inactive: 4.97%"}]}]}
